Active and inactive are the calls of the source. No cut-off for these calls is given here.
Tests used:
[1] = biological target: Phospholipid-transporting ATPase ABCA1 (Mus musculus) (UniProt P41233); test: Activation of ABCA1 in mouse J774.2 cells assessed as increase in fluorescent-tagged cholesterol efflux incubated for 24 hrs by BODIPY based fluorescence analysis; assay type: cell-based; conditions: filed as activator
[2] = biological target: Phospholipid-transporting ATPase ABCA1 (Mus musculus) (UniProt P41233); test: Activation of ABCA1 in mouse J774.2 cells assessed as increase in fluorescent-tagged cholesterol efflux at 10 uM incubated for 24 hrs in presence of ABCA1 inhibitor probucol by BODIPY based fluorescence analysis; assay type: cell-based

The chains behind the UniProt entries cited, without tags or fusion partners. Where a name states a change or a piece, a line headed by the entry shows the natural chain unless it says otherwise.
UniProt P41233: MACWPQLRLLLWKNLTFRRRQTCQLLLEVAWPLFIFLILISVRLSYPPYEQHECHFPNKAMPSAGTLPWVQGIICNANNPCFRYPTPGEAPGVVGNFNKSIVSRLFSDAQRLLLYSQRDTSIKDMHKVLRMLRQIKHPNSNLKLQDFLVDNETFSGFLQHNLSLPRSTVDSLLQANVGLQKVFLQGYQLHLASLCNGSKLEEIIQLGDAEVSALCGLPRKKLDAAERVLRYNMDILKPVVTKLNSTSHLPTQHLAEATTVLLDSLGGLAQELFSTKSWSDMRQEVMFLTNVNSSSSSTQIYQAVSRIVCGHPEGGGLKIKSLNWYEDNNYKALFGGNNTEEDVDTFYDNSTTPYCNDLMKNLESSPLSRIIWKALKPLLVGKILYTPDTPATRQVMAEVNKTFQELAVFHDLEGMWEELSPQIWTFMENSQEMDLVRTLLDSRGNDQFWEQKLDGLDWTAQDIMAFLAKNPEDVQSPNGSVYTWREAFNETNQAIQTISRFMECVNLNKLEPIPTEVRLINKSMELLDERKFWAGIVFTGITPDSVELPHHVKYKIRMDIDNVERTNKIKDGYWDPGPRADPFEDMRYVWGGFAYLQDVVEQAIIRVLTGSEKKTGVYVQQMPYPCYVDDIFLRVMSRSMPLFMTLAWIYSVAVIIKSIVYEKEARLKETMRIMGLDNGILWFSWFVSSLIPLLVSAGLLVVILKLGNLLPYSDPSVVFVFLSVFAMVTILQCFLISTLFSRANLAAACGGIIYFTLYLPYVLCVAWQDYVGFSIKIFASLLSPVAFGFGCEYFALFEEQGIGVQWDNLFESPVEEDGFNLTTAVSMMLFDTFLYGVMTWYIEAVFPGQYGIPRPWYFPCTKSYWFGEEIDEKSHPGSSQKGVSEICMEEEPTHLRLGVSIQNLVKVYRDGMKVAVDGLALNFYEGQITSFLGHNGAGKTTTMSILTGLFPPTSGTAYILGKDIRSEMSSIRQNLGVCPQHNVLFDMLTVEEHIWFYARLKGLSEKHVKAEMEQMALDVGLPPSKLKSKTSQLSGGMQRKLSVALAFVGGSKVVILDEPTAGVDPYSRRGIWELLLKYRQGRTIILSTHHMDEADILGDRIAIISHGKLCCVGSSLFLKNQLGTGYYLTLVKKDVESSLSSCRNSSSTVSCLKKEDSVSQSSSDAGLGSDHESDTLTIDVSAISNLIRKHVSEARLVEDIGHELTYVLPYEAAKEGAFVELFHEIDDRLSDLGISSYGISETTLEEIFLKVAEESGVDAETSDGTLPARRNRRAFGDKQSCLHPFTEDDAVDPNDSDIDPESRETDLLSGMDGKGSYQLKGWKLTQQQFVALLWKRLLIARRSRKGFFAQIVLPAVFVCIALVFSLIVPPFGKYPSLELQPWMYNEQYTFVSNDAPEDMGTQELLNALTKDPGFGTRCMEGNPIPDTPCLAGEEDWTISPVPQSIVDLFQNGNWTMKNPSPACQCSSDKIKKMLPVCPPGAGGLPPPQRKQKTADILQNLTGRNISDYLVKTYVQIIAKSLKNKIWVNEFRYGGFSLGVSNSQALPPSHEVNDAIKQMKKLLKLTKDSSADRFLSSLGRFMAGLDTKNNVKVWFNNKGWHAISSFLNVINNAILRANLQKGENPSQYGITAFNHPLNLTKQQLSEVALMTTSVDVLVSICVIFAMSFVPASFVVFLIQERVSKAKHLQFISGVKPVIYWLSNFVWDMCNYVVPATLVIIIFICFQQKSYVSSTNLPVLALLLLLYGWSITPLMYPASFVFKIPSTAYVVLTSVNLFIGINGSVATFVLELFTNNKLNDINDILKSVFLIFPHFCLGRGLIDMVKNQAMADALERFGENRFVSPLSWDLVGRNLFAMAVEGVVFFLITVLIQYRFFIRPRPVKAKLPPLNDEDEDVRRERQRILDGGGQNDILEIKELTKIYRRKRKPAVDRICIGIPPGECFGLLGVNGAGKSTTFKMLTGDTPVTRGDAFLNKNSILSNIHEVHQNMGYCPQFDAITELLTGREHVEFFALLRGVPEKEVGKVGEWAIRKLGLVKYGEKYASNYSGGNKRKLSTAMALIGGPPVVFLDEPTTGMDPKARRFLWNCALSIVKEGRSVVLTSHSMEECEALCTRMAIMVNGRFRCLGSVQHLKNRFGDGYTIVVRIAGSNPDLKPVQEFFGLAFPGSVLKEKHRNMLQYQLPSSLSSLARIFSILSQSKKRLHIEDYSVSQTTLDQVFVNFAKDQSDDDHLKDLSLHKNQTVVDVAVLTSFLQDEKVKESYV

- Activity [1]: Dose-Dependent Effect
- Activity [2]: inactive
Compound: CCOC(=O)c1cc(Cl)cc(NC(=O)c2sc(Cl)cc2S(=O)(=O)N(C)c2ccc(OCC)c(OC)c2)c1

Reference: ChEMBL document CHEMBL5584351
